Test results taken from PMC6815956, “Bioinspired Self-assembling Peptide Hydrogel with Proteoglycan-assisted Growth Factor Delivery for Therapeutic Angiogenesis” (Theranostics, 2019).

Assays:
[1] = GF loading efficiency (ELISA); type: physicochemical; details: GF/HS complex in QLK/LRK peptide hydrogel, n = 6
Experimental: (§1) At specific time intervals, the supernatants were collected, stored at -80 °C, and fresh release buffer was compensated. […] After adding the stop solution, the absorbance of the hydrogel at 450/540 nm was recorded by SpectraMax Plus 384 Microplate Reader.
(§2) It was the major challenge for scaffold-based GF delivery that how to maintain the release rate of incorporated GFs.

[2] = GF release profile (ELISA); type: physicochemical; details: from GAG-assisted QLK/LRK hydrogel, PBS w/ 0.05 % Tween 20, 1 % BSA, 37 °C, n = 6
Experimental: as §1, §2

Substance: VEGF
- loading efficiency [1]: approximately 75.9 ± 1.1%
- cumulative release, total ([2]; 28 days, ELISA): approximately 68%
- cumulative release, initial ([2]; day 3, ELISA): 32%
